# Apparent affinities of Ab-91 variants for a coronavirus HR2 peptide

Values reported by Engelhart et al. 2022, doi:10.1038/s41597-022-01779-4 (FLAb copy).

All variants were tested on one target, the spike HR2 peptide PDVDLGDISGINAS (SARS-CoV-2).

Each scFv is VL, a (GGGGS)3 linker, VH, as in the parent Ab-91, and differs from it in the CDRs of the heavy chain only.
VL: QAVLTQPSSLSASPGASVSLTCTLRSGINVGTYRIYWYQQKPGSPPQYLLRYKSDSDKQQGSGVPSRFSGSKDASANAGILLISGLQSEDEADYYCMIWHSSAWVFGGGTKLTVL
VH: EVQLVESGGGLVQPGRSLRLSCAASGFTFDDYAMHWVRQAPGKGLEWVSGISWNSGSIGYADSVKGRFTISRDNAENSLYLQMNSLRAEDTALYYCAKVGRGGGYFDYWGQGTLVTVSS

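Phage display of a naive human antibody library on the peptide gave the parent. AAYL51 was designed without a model: most single CDR substitutions and a random sample of double and triple ones. The assay is AlphaSeq: two haploid yeast populations carry antibody and antigen on their surface. Pairs that bind mate more often; barcode pairs of the diploids are counted by sequencing. The ratio of observed to expected reads was calibrated, replicate by replicate, on BCL2-family standards whose Kd was known from biolayer interferometry. Mating was done three times.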

The whole VH of each variant is written out.
Affinities are written as log10 Kd with Kd in nM; a lower number is a better binder.
Where no diploid with the target was found in that replicate, the entry reads "ND": below detection, most likely a poor binder, though not proof of it.
Three control strains display no target. For library AAYL51, 21% of the pairings with them gave a signal, with a median of 4.54 and one signal in twenty below 3.26, so weak values seen in few replicates may be background. Also given: how often the same scFv was detected with the empty control strains, with their mean in brackets.
In this assay the parent's reference entry averaged 1.86; its copy inside this library read 0.88.

VH | replicates, log10 nM | signal with controls
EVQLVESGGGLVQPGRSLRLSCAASGFTFDDYAMHWVRQAPGKGLEWVSGISWNSGSIGYADSVKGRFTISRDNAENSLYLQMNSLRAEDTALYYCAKVGRGGGYFRYWGQGTLVTVSS | 4.90 5.00 6.69 | 6/9 (5.35)
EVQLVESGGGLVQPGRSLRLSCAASRFTFDDYAMHWVRQAPGKGLEWVSGISWNKGSIGYADSVKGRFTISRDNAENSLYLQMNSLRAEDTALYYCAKVGRGKGYFDYWGQGTLVTVSS | 5.39 5.72 5.61 | 7/9 (4.71)
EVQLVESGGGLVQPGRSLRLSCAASGFTFQDYAMHWVRQAPGKGLEWVSGISWNSCSIGYADSVKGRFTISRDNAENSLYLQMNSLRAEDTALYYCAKVGRGGGYFDAWGQGTLVTVSS | 4.97 5.08 4.85 | 5/9 (4.52)
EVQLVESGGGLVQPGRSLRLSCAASGFTFDDYAMHWVRQAPGKGLEWVSGISWNSGSIGYWDHVKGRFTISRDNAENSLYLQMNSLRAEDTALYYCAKVGRGGGYFPYWGQGTLVTVSS | ND ND ND | 1/9 (4.77)
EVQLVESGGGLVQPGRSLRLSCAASGFTFDDYAMHWVRQAPGKGLEWVSGASWNSGSIGYADSVKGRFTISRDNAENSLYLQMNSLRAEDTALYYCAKVGRGGGYYDGWGQGTLVTVSS | ND ND ND | 0/9
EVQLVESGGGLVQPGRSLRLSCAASGFTKDDYAMHWVRQAPGKGLEWVSGIQWNSGSIGYADSVKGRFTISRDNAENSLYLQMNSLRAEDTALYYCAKVGRGGGYFDEWGQGTLVTVSS | 4.23 ND ND | 6/9 (4.70)
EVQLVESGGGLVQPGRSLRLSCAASGFTFDDYADHWVRQAPGKGLEWVSGISWNQGSIGYAASVKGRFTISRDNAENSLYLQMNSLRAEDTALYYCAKVGRGGGYFDYWGQGTLVTVSS | ND ND ND | 0/9
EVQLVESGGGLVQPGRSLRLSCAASGFTFDQYAMHWVRQAPGKGLEWVSGISWNSGSIGVADSVKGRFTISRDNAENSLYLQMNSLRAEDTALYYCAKVGRGGGYFDYWGQGTLVTVSS | ND ND ND | 0/9
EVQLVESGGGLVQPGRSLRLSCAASGFTFDDYAMHWVRQAPGKGLEWVSGDSWNSGRIGYADSVKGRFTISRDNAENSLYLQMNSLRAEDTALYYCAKVGRGGGYADYWGQGTLVTVSS | ND 5.21 ND | 1/9 (3.26)
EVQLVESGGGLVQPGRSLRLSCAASGFTFDDYAMHWVRQAPGKGLEWVSGIRWNSGSIGYADSVKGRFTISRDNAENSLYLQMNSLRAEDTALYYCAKVGRGGGYFYFWGQGTLVTVSS | ND ND ND | 0/9
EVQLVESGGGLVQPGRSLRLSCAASGFGFDDYAMHWVRQAPGKGLEWVSGISWNSGSIGYAHSVCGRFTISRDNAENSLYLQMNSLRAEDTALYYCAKVGRGGGYFDYWGQGTLVTVSS | 3.79 3.52 ND | 3/9 (4.19)
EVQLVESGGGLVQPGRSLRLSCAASGFTFDDYAMHWVRQAPGKGLEWVSGISWNSGSGGYADSVKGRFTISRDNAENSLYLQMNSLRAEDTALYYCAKVGRQGGYFDYWGQGTLVTVSS | ND ND ND | 2/9 (4.62)
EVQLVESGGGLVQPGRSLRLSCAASGFTFDDYAMWWVRQAPGKGLEWVSGILWNSASIGYADSVKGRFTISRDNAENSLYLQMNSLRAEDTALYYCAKVGRGGGYFDYWGQGTLVTVSS | ND ND ND | 5/9 (4.75)
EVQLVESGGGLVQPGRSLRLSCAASGRTFDDYAMHWVRQAPGKGLEWVSGISWTSGSIGYADSVKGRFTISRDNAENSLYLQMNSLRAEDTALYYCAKVGRGGGYFIYWGQGTLVTVSS | 3.89 ND ND | 4/9 (4.17)
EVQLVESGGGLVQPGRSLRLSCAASGFTFDDYAMHWVRQAPGKGLEWVSGISWNSGSIGYADMVKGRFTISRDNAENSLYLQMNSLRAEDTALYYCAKVGRGGGYFHDWGQGTLVTVSS | ND ND 5.01 | 1/9 (4.12)
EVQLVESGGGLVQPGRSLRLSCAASGFTFDDYAMHWVRQAPGKGLEWVSGISSNKHSIGYADSVKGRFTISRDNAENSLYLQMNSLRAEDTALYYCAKVGRGGGYFDYWGQGTLVTVSS | ND ND ND | 0/9
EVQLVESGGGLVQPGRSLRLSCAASGFTFPDYAMHWVRQAPGKGLEWVSGISWNSGSIGYACSVKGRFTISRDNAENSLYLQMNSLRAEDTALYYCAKVGRDGGYFDYWGQGTLVTVSS | 2.68 3.07 4.33 | 3/9 (4.37)
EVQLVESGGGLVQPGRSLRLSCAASGFTFDDYAMHWVRQAPGKGLEWVSGISWNSGSIGYADDVKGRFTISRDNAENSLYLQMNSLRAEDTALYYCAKVGRGGFYEDYWGQGTLVTVSS | ND ND ND | 0/9

Repeated from above, the 2 best binders with a signal in all replicates:

{"VH": "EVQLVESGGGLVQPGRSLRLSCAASGFTFPDYAMHWVRQAPGKGLEWVSGISWNSGSIGYACSVKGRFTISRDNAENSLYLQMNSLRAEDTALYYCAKVGRDGGYFDYWGQGTLVTVSS", "replicates, log10 nM": "2.68 3.07 4.33", "signal with controls": "3/9 (4.37)"}
{"VH": "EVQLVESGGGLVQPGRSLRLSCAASGFTFQDYAMHWVRQAPGKGLEWVSGISWNSCSIGYADSVKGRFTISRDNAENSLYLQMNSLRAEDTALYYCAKVGRGGGYFDAWGQGTLVTVSS", "replicates, log10 nM": "4.97 5.08 4.85", "signal with controls": "5/9 (4.52)"}